Assay results reported in patent publication US9962447B2, “Supramolecular aggregates comprising maleimido cores” (UFPEPTIDES S.R.L., priority 2013, dated 2018).

Protein sequences, listed by entry. Tags and fused reporters are not part of them. Lines headed by an entry give the natural chain unless they say otherwise; changes in a name come on top.
UniProt P41146: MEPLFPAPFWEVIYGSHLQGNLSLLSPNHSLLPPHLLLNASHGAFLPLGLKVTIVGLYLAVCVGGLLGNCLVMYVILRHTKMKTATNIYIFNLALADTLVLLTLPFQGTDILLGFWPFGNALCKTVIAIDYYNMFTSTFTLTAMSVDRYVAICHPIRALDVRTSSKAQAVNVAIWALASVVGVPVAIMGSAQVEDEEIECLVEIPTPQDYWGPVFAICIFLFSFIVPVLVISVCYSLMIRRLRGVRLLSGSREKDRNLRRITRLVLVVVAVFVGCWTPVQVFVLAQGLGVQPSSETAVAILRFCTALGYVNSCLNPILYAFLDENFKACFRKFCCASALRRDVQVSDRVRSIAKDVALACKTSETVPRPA
UniProt P41145: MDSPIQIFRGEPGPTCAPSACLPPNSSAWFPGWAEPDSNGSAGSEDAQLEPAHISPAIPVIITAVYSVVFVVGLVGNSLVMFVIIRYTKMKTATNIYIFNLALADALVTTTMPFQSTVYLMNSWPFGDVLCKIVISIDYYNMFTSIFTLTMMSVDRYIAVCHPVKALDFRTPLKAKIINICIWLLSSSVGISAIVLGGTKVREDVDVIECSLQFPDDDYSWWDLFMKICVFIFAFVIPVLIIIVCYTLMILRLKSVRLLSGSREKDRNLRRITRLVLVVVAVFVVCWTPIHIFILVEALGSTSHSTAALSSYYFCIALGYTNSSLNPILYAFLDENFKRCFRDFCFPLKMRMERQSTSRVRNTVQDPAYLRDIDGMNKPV
UniProt P41143, whole entry: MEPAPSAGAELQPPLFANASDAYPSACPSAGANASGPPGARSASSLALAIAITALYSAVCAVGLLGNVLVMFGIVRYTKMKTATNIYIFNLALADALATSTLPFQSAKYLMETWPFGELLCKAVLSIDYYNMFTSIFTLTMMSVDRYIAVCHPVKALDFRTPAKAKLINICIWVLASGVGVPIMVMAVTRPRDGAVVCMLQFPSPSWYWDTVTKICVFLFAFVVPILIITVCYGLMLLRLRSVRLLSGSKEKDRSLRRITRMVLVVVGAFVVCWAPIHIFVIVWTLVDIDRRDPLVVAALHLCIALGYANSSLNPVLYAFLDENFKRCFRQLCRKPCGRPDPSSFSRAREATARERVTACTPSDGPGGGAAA

Columns and labels:
[1] = target: human NOP receptor (Homo sapiens, UniProt P41146); test: Calcium mobilization in CHO cells expressing human NOP receptor and Gαqi5; type: cell-based; settings: maximal effect, % over the basal values
Method: (§1) Cells were maintained in culture medium consisting of Dulbecco's MEM/HAM'S F-12 (50/50) supplemented with 10% foetal calf serum, penicillin (100 IU/ml), streptomycin (100 μg/ml), fungizone (2.5 μg/ml), geneticin (G418; 200 μg/ml) and hygromycin B ([…]). Cell cultures were kept at 37° C. in 5% CO2 humidified air. In all cases experimental cultures were free from selection agents (hygromycin B, G418). When confluence was reached (3-4 days), cells were sub-cultured as required using trypsin EDTA and used for experimentation. Cells were seeded at a density of 50,000 cells/well into 96-well black, clear-bottom plates. After 24 hours incubation the cells were loaded with medium supplemented with 2.5 mM probenecid, 3 μM of the calcium sensitive fluorescent dye Fluo-4 AM and 0.01% pluronic acid, for 30 min at 37° C. Afterwards the loading solution was aspirated and 100 μl/well of assay buffer: Hank's Balanced Salt Solution (HBSS) supplemented with 20 mM HEPES, 2.5 mM probenecid and 500 μM Brilliant Black (Aldrich) was added. […] On-line additions were carried out in a volume of 50 μl/well. […]
(§2) Four mice were monitored in parallel. […] Animals locomotion was recorded for 60 min.

[2] = system: vas deferens tissues taken from NOP(−/−) mice; test: Electrically stimulated vas deferens from NOP(−/−) mice; design: species or system mouse
Method: The mouse vas deferens were prepared as previously described (Calto et al., Eur J Pharmacol. 311, (1996) R3-5). Tissues were suspended in 5 ml organ baths containing heated Krebs solution (composition in mM: NaCl 118.5, KCl 4.7, KH2PO4 1.2, NaHCO3 25, glucose 10 and CaCl2 2.5) oxygenated with 95% O2 and 5% CO2. The bath temperature was set at 33° C. Tissues were continuously stimulated through two platinum ring electrodes with supramaximal rectangular pulses of 1 ms duration and 0.05 Hz frequency. A resting tension of 0.3 g was applied to the vas deferens. The electrically evoked contractions (twitches) were measured isotonically with a strain gauge transducer (Basile 7006, UgoBasile s.r.l., Varese, Italy) and recorded with the PC based acquisition system Power Lab (ADInstrument, USA). Following an equilibration period of 60 min, the contractions induced by electrical field stimulation were stable.

[3] = target: KOP receptor (Homo sapiens, UniProt P41145); test: Calcium mobilization in CHO cells expressing KOP receptor and Gαqi5; type: cell-based; settings: inactive = inactive up to 1 μM
Method: as §1, §2

[4] = system: spontaneous locomotor activity; test: Mouse locomotor activity, CD-1 mice, i.c.v.; type: in vivo; settings: recorded for 120 min
[5] = target: T1, DOP receptor (Homo sapiens, UniProt P41143); test: Calcium mobilization in CHO cells expressing DOP receptor and GαqG66Di5; type: cell-based; settings: inactive = inactive up to 1 μM
T1 construct: expressed in transfected cells; host or cells: CHO cells co-expressing GαqG66Di5
Method: Cell cultures were kept at 37° C. in 5% CO2 humidified air. In all cases experimental cultures were free from selection agents (hygromycin B, G418). When confluence was reached (3-4 days), cells were sub-cultured as required using trypsin EDTA and used for experimentation. Cells were seeded at a density of 50,000 cells/well into 96-well black, clear-bottom plates. After 24 hours incubation the cells were loaded with medium supplemented with 2.5 mM probenecid, 3 μM of the calcium sensitive fluorescent dye Fluo-4 AM and 0.01% pluronic acid, for 30 min at 37° C. Afterwards the loading solution was aspirated and 100 μl/well of assay buffer: Hank's Balanced Salt Solution (HBSS) supplemented with 20 mM HEPES, 2.5 mM probenecid and 500 μM Brilliant Black (Aldrich) was added. […] On-line additions were carried out in a volume of 50 μl/well. To facilitate drug diffusion into the wells in antagonist type experiments, the present studies were performed at 37° C. and three cycles of mixing (25 μl from each well moved up and down 3 times) were performed immediately after antagonist injection to the wells.
as §2

[6] = system: electrically stimulated mouse vas deferens; test: Electrically stimulated mouse vas deferens
Method: The bath temperature was set at 33° C. Tissues were continuously stimulated through two platinum ring electrodes with supramaximal rectangular pulses of 1 ms duration and 0.05 Hz frequency. A resting tension of 0.3 g was applied to the vas deferens.
assuming a slope value equal to unity, where CR indicate the ratio between agonist potency in the presence and absence of antagonist.

B1: PWT2-N/OFQ: supramolecular aggregate of maleimido core PWT2 with nociceptin/orphanin FQ, made from PWT2 and [Cys18]N/OFQ-NH2 by thiol-Michael addition (conjugate)
peptide: SCQRDCLTCQEKLHPALDSFDLEVCILECEEKVFPSPLWTPCTKVMARSSWQLSPAAPEHVAAALYQPRASEMQHLRRMPRVRSLFQEQEEPEPGMEEAGEMEQKQLQKRFGGFTGARKSARKLANQKRFSEFMRQYLVLSMQSSQRRRTLHQNGNVC
- Emax [1]: 239 ± 14%
- fold reduced potency in NOP(−/−) versus NOP(+/+) tissues [2]: more than 100 fold
- pEC50 [3]: inactive
- fold more potent than N/OFQ on locomotor activity [4]: about 40 fold
- pEC50 [5]: inactive
- fold higher potency than N/OFQ [6]: approximately 3 fold
